The target of the experiment is human CGRP receptor (Homo sapiens, UniProt O60894+Q16602). The experiment can be described thus: cAMP functional assay (HTRF cAMP dynamic-2) in SK-N-MC cells. To be noted: SK-N-MC cells endogenously expressing human CGRP receptor; challenge with EC80 human CGRP (0.3 nM); functional pKb converted from pIC50 by modified Cheng-Prussoff equation. As for the experimental part:
cAMP production following receptor activation was determined using the Homogeneous Time-Resolved Fluorescence (HTRF) cAMP dynamic-2 assay (Cisbio, France). The human neuroblastoma cell line SK-N-MC endogenously expressing the human CGRP receptor was seeded at a density of 12,500 cells/well in solid walled 96 well half area plates (Costar, Catalog Number 3688, Corning Life Sciences, Germany). After 16 h incubation at 37° C. media was removed and cells were incubated at 37° C. for 30 min in serum free media containing 500 μM IBMX (Tocris, Abingdon, UK, Catalog Number 2845) and increasing concentrations of test antagonist. Following this cells were challenged with an EC80 concentration of human CGRP (0.3 nM) for a further 30 m at 37°) and then cAMP production was determined as manufacturer's instructions before plates were read on a PheraStar fluorescence plate reader (BMG LabTech, Germany). IC50 values were derived from the inhibition curve. The pIC50 values (where pIC50=−log10 IC50) were converted to a functional pKb value using a modified Cheng-Prussoff equation where Kd=agonist EC50 and L hot=agonist challenge concentration. The pKb values of certain compounds of the invention are detailed in Table 5.
On the technique in general: In TR-FRET formats the signal depends on donor and acceptor labels being close together.

Protein sequences, listed by entry. Tags and fused reporters are not part of them. Residues count along the entry.
UniProt O60894, 27-148 limits assumed: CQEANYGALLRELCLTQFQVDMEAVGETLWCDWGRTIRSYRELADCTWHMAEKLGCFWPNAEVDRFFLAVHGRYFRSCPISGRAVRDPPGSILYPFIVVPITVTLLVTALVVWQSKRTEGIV
UniProt Q16602, 23-461 limits assumed: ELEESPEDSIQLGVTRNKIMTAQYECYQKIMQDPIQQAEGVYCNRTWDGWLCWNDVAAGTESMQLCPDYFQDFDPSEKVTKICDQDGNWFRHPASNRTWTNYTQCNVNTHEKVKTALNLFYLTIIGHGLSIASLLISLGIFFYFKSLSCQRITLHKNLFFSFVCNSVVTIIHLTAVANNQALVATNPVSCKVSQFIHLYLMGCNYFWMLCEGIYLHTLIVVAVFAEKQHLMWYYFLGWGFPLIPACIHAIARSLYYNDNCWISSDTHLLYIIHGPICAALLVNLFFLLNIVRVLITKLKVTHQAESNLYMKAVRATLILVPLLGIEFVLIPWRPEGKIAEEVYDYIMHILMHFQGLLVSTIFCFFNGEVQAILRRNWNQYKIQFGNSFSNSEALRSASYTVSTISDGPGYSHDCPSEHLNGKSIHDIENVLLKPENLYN

Regarding `CC1C(c2c(F)ccc(F)c2F)CC2NC(=O)c3cnc4c(c3)C[C@@]3(C4)C(=O)Nc4ncc(cc43)/C=C/COCCOCCN1C2=O` (single isomer, unassigned), the “CGRP pKb” value came to 9.3. `O=C1N[C@H]2C[C@@H](c3c(F)ccc(F)c3F)CN(CCCCCOC/C=C/c3cnc4c(c3)[C@@]3(Cc5cc1cnc5C3)C(=O)N4)C2=O` (single isomer, unassigned): the “CGRP pKb” value came out at 10.8. With `CC1C(c2cc(F)cc(F)c2F)CC2NC(=O)c3cnc4c(c3)C[C@@]3(C4)C(=O)Nc4ncc(cc43)/C=C/COCCOCCN1C2=O` (single isomer, unassigned) [3-1 Isomer 1] the figure was 11.1. Take `CC1C(c2cccc(F)c2F)CC2NC(=O)c3cnc4c(c3)C[C@@]3(C4)C(=O)Nc4ncc(cc43)/C=C/COCCCCCN1C2=O` (single isomer, unassigned) [4-1 Isomer 2]: the “CGRP pKb” value is listed as 9.7.

Take `CC1C(c2ccccc2)CC2NC(=O)c3cnc4c(c3)C[C@@]3(C4)C(=O)Nc4ncc(cc43)/C=C/COCCCOCCN1C2=O` (single isomer, unassigned): the “CGRP pKb” value was determined as 10.6. Regarding `O=C1NC2CC(c3c(F)ccc(F)c3F)CN(CCCCCOC/C=C/c3cnc4c(c3)[C@@]3(Cc5cc1cnc5C3)C(=O)N4)C2=O` (single isomer, unassigned) [5-1 Isomer 3], the “CGRP pKb” value is given as 8.9. With `O=C1NC2CC(c3ccccc3)CN(CCOCCOCCCc3cnc4c(c3)[C@@]3(Cc5cc1cnc5C3)C(=O)N4)C2=O` (single isomer, unassigned), the “CGRP pKb” value came out at 8.4.

In the case of `CC1C(c2cc(F)cc(F)c2F)CC2NC(=O)c3cnc4c(c3)C[C@@]3(C4)C(=O)Nc4ncc(cc43)/C=C/COCCOCCN1C2=O` (single isomer, unassigned) [3-1 Isomer 2], the “CGRP pKb” value came out at 8.2. On to `CC1C(c2ccccc2)CC2NC(=O)c3cnc4c(c3)C[C@@]3(C4)C(=O)Nc4ncc(cc43)/C=C/COCCN(C)CCN1C2=O` (single isomer, unassigned), for which the “CGRP pKb” value amounted to 9.8. With `O=C1NC2CC(c3ccccc3)CN(CCOCCOCCOC/C=C/c3cnc4c(c3)[C@@]3(Cc5cc1cnc5C3)C(=O)N4)C2=O` (single isomer, unassigned) [6-2 Isomer 1], the “CGRP pKb” value was 7.5. With `CC1C(c2cc(F)cc(F)c2F)CC2NC(=O)c3cnc4c(c3)C[C@@]3(C4)C(=O)Nc4ncc(cc43)/C=C/COCCCCCN1C2=O` (single isomer, unassigned) the figure was 8.9.

The values are drawn from patent US12227521B2, “CGRP antagonist compounds” (Nxera Pharma UK Limited, priority 2019, dated 2025).
